scFv variants of Ab-91 (heavy chain) against a SARS-CoV-2 spike peptide

The target is the same throughout: PDVDLGDISGINAS, from the HR2 region of SARS-CoV-2 spike.

The variants keep the light chain, the linker and the frameworks of Ab-91 (scFv order VL, a (GGGGS)3 linker, VH).
VL: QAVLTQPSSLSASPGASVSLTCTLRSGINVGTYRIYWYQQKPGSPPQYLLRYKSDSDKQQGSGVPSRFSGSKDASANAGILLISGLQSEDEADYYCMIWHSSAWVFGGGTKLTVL
VH: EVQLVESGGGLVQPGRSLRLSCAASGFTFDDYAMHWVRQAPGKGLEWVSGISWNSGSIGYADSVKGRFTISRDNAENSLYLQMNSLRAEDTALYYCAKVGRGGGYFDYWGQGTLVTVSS

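The parent was found by panning a naive human phage display library on the peptide. AAYL51 was designed without a model: most single CDR substitutions and a random sample of double and triple ones. The scFvs were displayed on barcoded MATa yeast, the peptide on MATalpha yeast. Binding brings cells together so that they mate, and sequencing counts the barcode pairs among the diploids. Each replicate has its own calibration line, from reference interactions of the BCL2 family. The assay was run in three technical replicates.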

Each variant's VH is given in full.
Every variant below is changed at S52 of the VH (sequential numbering).
Scale: log10 of Kd in nM, estimated from mating counts; low values are strong binders.
Replicates are averaged; those with no signal do not enter the mean.
"no signal" means that the variant was in the library but no mating with the target was seen in any replicate; the authors take this as a sign of poor binding, and no number exists.
In this assay the parent's reference entry averaged 1.86; its copy inside this library read 0.88.
Empty control strains, which show no peptide, gave a signal in 21% of pairings with library AAYL51; the median was 4.54 and 95% of these signals were weaker than 3.26. No background was subtracted.

The variant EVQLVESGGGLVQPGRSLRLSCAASGFTFDDYAMHWVRQAPGKGLEWVSGIGWNSGSIGYADSVKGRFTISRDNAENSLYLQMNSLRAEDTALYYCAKVGRGGIYFVYWGQGTLVTVSS showed 1.16 (3 of 3 replicates). The variant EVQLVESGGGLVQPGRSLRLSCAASGFTFDDMAMHWVRQAPGKGLEWVSGFNWNSGSIGYADSVKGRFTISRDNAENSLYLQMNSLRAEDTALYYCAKVGRGGGYFDYWGQGTLVTVSS gave no signal (0 of 3 replicates). With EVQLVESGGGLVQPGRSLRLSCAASGFTFDDYAMHWVRQAPGKGLEWVSSILWNSGSIGYADSVKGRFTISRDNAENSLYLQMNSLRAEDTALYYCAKVGRGGHYFDYWGQGTLVTVSS the result was no signal (0 of 3 replicates). The variant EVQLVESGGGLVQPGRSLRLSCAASGFTFDDYAMHWVRQAPGKGLEWVSGIHWNSGSIGYADSVKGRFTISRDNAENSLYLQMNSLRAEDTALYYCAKVGRGGGYFDYWGQGTLVTVSS gave 5.04 (2 of 3 replicates). With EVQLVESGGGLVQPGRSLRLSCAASGFTFDDYAMHWVRQAPGKGLEWVSGIFWNSGSIGYADSVKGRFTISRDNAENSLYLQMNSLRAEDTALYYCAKVGNGGGIFDYWGQGTLVTVSS the result was no signal (0 of 3 replicates).

The variant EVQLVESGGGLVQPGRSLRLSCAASGFTFADYAMHWVRQAPGKGLEWVSGICWNSGSIGYADSVKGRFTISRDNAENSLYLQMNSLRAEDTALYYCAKVGTGGGYFDYWGQGTLVTVSS showed 4.23 (1 of 3 replicates). The variant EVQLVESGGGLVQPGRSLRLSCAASGFTFDDNAMHWVRQAPGKGLEWVSGIWWNSGSIIYADSVKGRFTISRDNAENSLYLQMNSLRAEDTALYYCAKVGRGGGYFDYWGQGTLVTVSS gave 4.64 (1 of 3 replicates). With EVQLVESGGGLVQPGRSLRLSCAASGFTFDDYAMHWVRQAPGKGLEWVSGIHWNSGSIGYACSIKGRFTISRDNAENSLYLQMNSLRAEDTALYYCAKVGRGGGYFDYWGQGTLVTVSS the result was no signal (0 of 3 replicates). The variant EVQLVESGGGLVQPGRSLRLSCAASGFTFDDYAMHWVRQAPGKGLEWVSGIRWNSGSIGYADSVKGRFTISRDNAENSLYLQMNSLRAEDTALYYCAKVGVGGGYFEYWGQGTLVTVSS showed 3.76 (2 of 3 replicates). For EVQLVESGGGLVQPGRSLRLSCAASGFSFDDYAIHWVRQAPGKGLEWVSGINWNSGSIGYADSVKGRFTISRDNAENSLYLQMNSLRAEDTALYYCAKVGRGGGYFDYWGQGTLVTVSS, the assay gave no signal (0 of 3 replicates).

The variant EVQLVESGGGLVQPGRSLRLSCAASGFTFDMYAMHWVRQAPGKGLEWVSGIPYNSGSIGYADSVKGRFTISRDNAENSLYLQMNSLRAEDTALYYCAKVGRGGGYFDYWGQGTLVTVSS showed 4.29 (2 of 3 replicates). The variant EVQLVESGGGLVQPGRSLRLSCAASGFTFDDYMMHWVRQAPGKGLEWVSGIWWNSGSIGYADSVKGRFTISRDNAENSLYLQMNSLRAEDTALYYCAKVGRGCGYFDYWGQGTLVTVSS gave no signal (0 of 3 replicates). The variant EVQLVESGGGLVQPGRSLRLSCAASGKTFYDYAMHWVRQAPGKGLEWVSGIVWNSGSIGYADSVKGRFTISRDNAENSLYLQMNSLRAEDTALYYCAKVGRGGGYFDYWGQGTLVTVSS showed 3.71 (1 of 3 replicates). The variant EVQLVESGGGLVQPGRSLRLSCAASGFTFDDYAMHWVRQAPGKGLEWVSGIHWNSGSIGKADSVKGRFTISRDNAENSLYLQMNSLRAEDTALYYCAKVGRGGGYFDYWGQGTLVTVSS gave no signal (0 of 3 replicates). The variant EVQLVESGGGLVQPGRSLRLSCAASGFTFDYYAKHWVRQAPGKGLEWVSGIMWNSGSIGYADSVKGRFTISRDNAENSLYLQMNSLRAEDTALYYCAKVGRGGGYFDYWGQGTLVTVSS gave 4.84 (2 of 3 replicates).

The variant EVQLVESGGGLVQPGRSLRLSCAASGFTFDDYAMEWVRQAPGKGLEWVSGIFWNSGSIGYADSVKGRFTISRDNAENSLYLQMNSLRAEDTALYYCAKVGRGGGYFDYWGQGTLVTVSS showed 3.93 (1 of 3 replicates). For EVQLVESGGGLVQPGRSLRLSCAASGFTFDDYAMHWVRQAPGKGLEWVSGPKWNSGSIGYADSVKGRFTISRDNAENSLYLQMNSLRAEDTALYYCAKVGRGGGYFWYWGQGTLVTVSS, the assay gave 4.77 (1 of 3 replicates). With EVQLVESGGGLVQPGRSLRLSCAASGFTFDDDAMHWVRQAPGKGLEWVSGITINSGSIGYADSVKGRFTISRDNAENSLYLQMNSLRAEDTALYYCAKVGRGGGYFDYWGQGTLVTVSS the result was 5.25 (2 of 3 replicates). The variant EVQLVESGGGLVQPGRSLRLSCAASGFTFDDYAMHWVRQAPGKGLEWVSGIEWNSGSIGYADSVKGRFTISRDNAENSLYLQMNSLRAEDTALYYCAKVGNGCGYFDYWGQGTLVTVSS gave 1.53 (3 of 3 replicates). For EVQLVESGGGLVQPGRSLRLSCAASGFTFDDYAMWWVRQAPGKGLEWVSHIGWNSGSIGYADSVKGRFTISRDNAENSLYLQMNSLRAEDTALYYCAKVGRGGGYFDYWGQGTLVTVSS, the assay gave no signal (0 of 3 replicates).

The variant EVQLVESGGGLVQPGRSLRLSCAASGFTFDDYAMTWVRQAPGKGLEWVSGIWWNSGSIGYADSVKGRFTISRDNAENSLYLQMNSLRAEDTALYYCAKVGRGGGYFDTWGQGTLVTVSS showed 4.76 (2 of 3 replicates). For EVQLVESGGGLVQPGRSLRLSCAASGFTFDDYIMHWVRQAPGKGLEWVSGIVWNSGSIGYADSKKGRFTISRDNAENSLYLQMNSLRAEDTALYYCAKVGRGGGYFDYWGQGTLVTVSS, the assay gave no signal (0 of 3 replicates). The variant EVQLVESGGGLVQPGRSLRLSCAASGFTFDDYAMWWVRQAPGKGLEWVSGITWNSGSIGYADSVGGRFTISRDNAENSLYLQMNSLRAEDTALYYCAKVGRGGGYFDYWGQGTLVTVSS showed 5.28 (1 of 3 replicates). For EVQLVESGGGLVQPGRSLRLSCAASGDTFDDYAMHWVRQAPGKGLEWVSGIEWNSGSIGKADSVKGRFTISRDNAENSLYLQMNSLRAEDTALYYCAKVGRGGGYFDYWGQGTLVTVSS, the assay gave no signal (0 of 3 replicates). The variant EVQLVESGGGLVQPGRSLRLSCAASGFTFDDYAMHWVRQAPGKGLEWVSGIGWNSGSIGYADSVKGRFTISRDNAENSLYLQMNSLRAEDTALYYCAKVGRGGGYFDYWGQGTLVTVSS gave 2.72 (3 of 3 replicates).

For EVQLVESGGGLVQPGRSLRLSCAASGFTFDDRAMHWVRQAPGKGLEWVSGICWNSGSIGYADSVKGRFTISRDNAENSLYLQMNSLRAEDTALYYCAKVGRGGGYFDYWGQGTLVTVSS, the assay gave 3.09 (1 of 3 replicates).

The first 4 variants above that were never detected:

For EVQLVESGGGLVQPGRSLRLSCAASGFTFDDMAMHWVRQAPGKGLEWVSGFNWNSGSIGYADSVKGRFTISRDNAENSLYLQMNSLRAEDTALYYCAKVGRGGGYFDYWGQGTLVTVSS, the assay gave no signal (0 of 3 replicates).
For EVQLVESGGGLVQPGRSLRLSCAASGFTFDDYAMHWVRQAPGKGLEWVSSILWNSGSIGYADSVKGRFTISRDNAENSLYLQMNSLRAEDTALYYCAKVGRGGHYFDYWGQGTLVTVSS, the assay gave no signal (0 of 3 replicates).
For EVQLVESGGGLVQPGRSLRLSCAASGFTFDDYAMHWVRQAPGKGLEWVSGIFWNSGSIGYADSVKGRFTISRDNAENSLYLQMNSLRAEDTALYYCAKVGNGGGIFDYWGQGTLVTVSS, the assay gave no signal (0 of 3 replicates).
For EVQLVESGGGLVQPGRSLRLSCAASGFTFDDYAMHWVRQAPGKGLEWVSGIHWNSGSIGYACSIKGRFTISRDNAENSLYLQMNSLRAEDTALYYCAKVGRGGGYFDYWGQGTLVTVSS, the assay gave no signal (0 of 3 replicates).

From the AlphaSeq antibody data of Engelhart et al. 2022 (doi:10.1038/s41597-022-01779-4), copy in the FLAb collection.